Source: patent US20240287147A1, “PD-L1 BINDING PEPTIDES AND PEPTIDE COMPLEXES AND METHODS OF USE THEREOF” (Fred Hutchinson Cancer Center, priority 2020, published 2024)

What was measured:
cynomolgus monkey PD-L1 = conditions: cells surface-expressing binder
PD-L1 = PD-L1 (Homo sapiens, UniProt Q9NZQ7); conditions: relative to SEQ ID NO: 8 (All 6)

Molecule | binding to cynomolgus monkey PD-L1 (cynomolgus monkey PD-L1) | PD-L1 staining / affinity of combination and reversion variants (PD-L1)
CC[C@H](C)[C@@H]1NC(=O)[C@H]([C@@H](C)O)NC(=O)[C@H](Cc2ccc(O)cc2)NC(=O)[C@H](CO)NC(=O)[C@H](CCCCN)NC(=O)[C@H](CC(N)=O)NC(=O)[C@H](CCCNC(=N)N)NC(=O)[C@H](CCC(=O)O)NC(=O)[C@H](C)NC(=O)[C@@H]2CSSC[C@H](NC(=O)[C@H](Cc3c[nH]cn3)NC(=O)[C@H](C)NC(=O)[C@H](CCCNC(=N)N)NC(=O)CNC1=O)C(=O)N[C@@H](CO)C(=O)NCC(=O)N[C@@H](CCC(N)=O)C(=O)N[C@@H](CCCCN)C(=O)N[C@@H](Cc1ccccc1)C(=O)N[C@@H](CC(=O)O)C(=O)N[C@@H](C(C)C)C(=O)N[C@@H](Cc1ccccc1)C(=O)N[C@@H](CCCCN)C(=O)N[C@H]1CSSC[C@H](NC(=O)[C@H](Cc3c[nH]cn3)NC(=O)[C@H](C(C)C)NC(=O)[C@H](CCCCN)NC(=O)[C@@H](NC(=O)[C@H](CC(=O)O)NC(=O)[C@H](CCC(=O)O)NC(=O)[C@@H](N)CCC(=O)O)CSSC[C@@H](C(=O)N[C@@H](C)C(=O)N[C@@H](C)C(=O)N3CCC[C@H]3C(=O)O)NC(=O)[C@H](Cc3c[nH]cn3)NC(=O)[C@H](CC(=O)O)NC(=O)[C@H](CC(C)C)NC1=O)C(=O)N[C@@H](C(C)C)C(=O)N[C@@H](CCCCN)C(=O)N[C@@H](CCC(=O)O)C(=O)N[C@@H](Cc1c[nH]c3ccccc13)C(=O)N[C@@H](CCSC)C(=O)N[C@@H](C)C(=O)NCC(=O)N[C@@H](CCCCN)C(=O)N[C@@H](C)C(=O)N2 [SEQ ID NO: 3] | binds human and cynomolgus monkey PD-L1 | 
EEDCKVHCVKWWMAGKACAERNKSYTIGRAHCSGQYFDVFKCLDHCAAP [SEQ ID NO: 13] |  | increased affinity for PD-L1
EEDCKVHCVKWWMAYKACAERNKSYTIGRAHCSGQKFDVFKCLDHCAAP [SEQ ID NO: 11] |  | increased affinity for PD-L1
